This passage reports inhibition results from PubChem BioAssay AID504357 (The Scripps Research Institute Molecular Screening Center, 2011).

Protein sequences, listed by entry. Tags and fused reporters are not part of them.
UniProt P35372, whole entry, looked up: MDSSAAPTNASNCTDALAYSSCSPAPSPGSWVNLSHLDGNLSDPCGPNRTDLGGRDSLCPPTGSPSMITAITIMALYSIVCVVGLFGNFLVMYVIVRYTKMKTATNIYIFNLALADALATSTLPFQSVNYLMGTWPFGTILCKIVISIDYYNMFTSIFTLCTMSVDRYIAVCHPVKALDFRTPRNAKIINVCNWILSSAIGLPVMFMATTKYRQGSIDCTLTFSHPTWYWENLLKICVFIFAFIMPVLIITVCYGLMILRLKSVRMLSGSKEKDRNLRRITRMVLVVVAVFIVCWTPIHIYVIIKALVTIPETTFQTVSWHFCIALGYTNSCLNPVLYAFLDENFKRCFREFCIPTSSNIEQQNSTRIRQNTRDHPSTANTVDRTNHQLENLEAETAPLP
UniProt P41143, whole entry, looked up: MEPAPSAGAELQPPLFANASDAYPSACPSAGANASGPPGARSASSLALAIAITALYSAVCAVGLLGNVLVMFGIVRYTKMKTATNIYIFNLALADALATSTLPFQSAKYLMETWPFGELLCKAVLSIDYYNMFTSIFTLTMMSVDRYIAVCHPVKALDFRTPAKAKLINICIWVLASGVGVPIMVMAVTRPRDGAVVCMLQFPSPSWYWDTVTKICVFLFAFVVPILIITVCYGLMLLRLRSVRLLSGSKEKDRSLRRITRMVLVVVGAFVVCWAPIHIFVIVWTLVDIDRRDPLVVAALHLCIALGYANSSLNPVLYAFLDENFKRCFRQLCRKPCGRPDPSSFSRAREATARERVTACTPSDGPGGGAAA

This is a selection; strong and weak results do not stand in their true shares. Some tests of the compounds listed are not included; inactive here does not mean inactive elsewhere. The source made the active and inactive calls. No stated cut-off is given here; in the data, active means inhibition above about 22% (passing the limit was not always enough); inactive means the rest.

A word on the inhibition: it is the change of the read-out against control, counted positive when it falls.

This test concerns the target Mu-type opioid receptor (Homo sapiens) + Delta-type opioid receptor (Homo sapiens) (UniProt P35372+P41143). As to the kind of experiment: inverse agonists of MOR-DOR heterodimerization, primary screen, cell-based, luminescence (AID 504357).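 Further: 0% = cells with DMSO and 100% = wells without cells with DMSO.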 The note with it: cell-based MOR-DOR heterodimer luminescence, inverse agonism; at 9.3 µM; hits give high values.
Turning to `CN(C)c1ccc(C(=O)NCC2(N(C)C)CCCCC2)cc1`, the inhibition was inactive: -137%. As for `CN(C)C1CCCC1OC(=O)C(O)(c1ccccc1)c1ccccc1` (stereo not given), the inhibition is inactive: 5.77%. As for `Cc1ccccc1C(=O)NCC1(N2CCCCC2)CCCCC1`, the figure is inactive: 12%.

For the molecule `COc1ccc(C(=O)NCC2(N(C)C)CCCCC2)cc1`, the inhibition was inactive: -16.9%. Regarding `O=C(NCC1(N2CCCCC2)CCCCC1)c1cccc(Br)c1`, the inhibition was inactive: 13.6%. Under `CCN1CCCC(OC(=O)C2(O)c3ccccc3C=Cc3ccccc32)C1` (stereo not given) stands inactive: 11%. As for `Cc1cc(C(=O)NCC2(N3CCCCC3)CCCCC2)ccc1[N+](=O)[O-]`, the figure is inactive: 8.57%; as for `O=C(NCC1(N2CCCCC2)CCCCC1)c1cc(F)c(F)cc1Cl`, inactive: 6.58%; as for `C=CCN1CCN(CCOC(=O)C(O)(c2ccccc2)c2ccccc2)CC1`, inactive: -4.49%.

Consider `CN1[C@@H]2CC[C@H]1CC(OC(=O)C(O)(c1ccccc1)c1ccccc1)C2` (stereo not given in full), for which the inhibition is inactive: 9.74%. Take `O=C(NCC1(N2CCCCC2)CCCCC1)c1cc([N+](=O)[O-])ccc1Cl`: the inhibition was inactive: -3.32%. Under `Cc1ccc(C(=O)NCC2(N3CCCCC3)CCCCC2)cc1` stands inactive: -2.25%. For the molecule `COc1cc(SC)ccc1C(=O)NCC1(N(C)C)CCCCC1`, the inhibition was inactive: 6.71%. For the molecule `CCN(CC)CC(C)C(C)OC(=O)C(O)(c1ccccc1)c1ccccc1` (stereo not given), the inhibition was inactive: -4.73%. Under `CC(C)N1C(=O)CC2(CCN(CCOC(=O)C(O)(c3ccccc3)c3ccccc3)CC2)C1=O` stands inactive: -4.16%; under `O=C(OC1CN2CCC1CC2)C(CO)(c1ccccc1)c1ccccc1` (stereo not given), inactive: 2.3%.

As to `O=C(OCCN1CCCC1)C(O)(c1ccccc1)c1ccccc1`, the inhibition is inactive: 5.78%. As for `CC(C)Oc1ccc(C(=O)NCC2(N(C)C)CCCCC2)cc1`, the figure is inactive: -48.6%. As for `CN(C)c1cccc(C(=O)NCC2(N(C)C)CCCCC2)c1`, the figure is inactive: -24.3%; as for `COc1ccc(Br)c(C(=O)NCC2(N3CCCCC3)CCCCC2)c1`, inactive: 7.16%.

For the molecule `COc1cc(C(=O)NCC2(N(C)C)CCCCC2)c([N+](=O)[O-])cc1OC`, the inhibition is inactive: 4.67%. For `CN(C)C1(CNC(=O)c2ccc(Br)cc2)CCCCC1`, the inhibition is inactive: -158%. As for `O=C(NCC1(N2CCCCC2)CCCCC1)c1cccc(Cl)c1`, the figure is inactive: -4.33%; as for `COc1ccc(Cl)cc1C(=O)NCC1(N(C)C)CCCCC1`, inactive: 13.9%; as for `COc1cccc(C(=O)NCC2(N3CCCCC3)CCCCC2)c1`, inactive: 8.9%.
